# Yeast UUG start = modulators of yeast start codon fidelity, primary screen, whole organism, S. cerevisiae, single point, plate reader. S. cerevisiae UUG-firefly luciferase reporter, luminescence/redox ratio. activity score, % at 18.7 µM. actives 0.13% (n = 350,000);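 active = replicate mean at a twofold rise or more, about +100% in these data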;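 note: firefly luciferase made from a UUG start codon reports start codon fidelity; reporter light over untreated wells divided by growth signal over untreated wells; some hits fall short of that in this replicate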
# SMARCA2 activ = SMARCA2 function activation, primary screen | MG213 cells, MMTV-luciferase reporter, dexamethasone, overnight | activation, % at 9.1 µM | 1% of 370,000 active | AID 652017; in the data active = activation above about 7.8%;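 also: 0% = vehicle wells and 100% = reference activator wells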
# NR1D1 modulator = modulates human Rev-erb alpha binding to DNA; P20393; Rev-erbα–FITC-DNA binding, fluorescence polarization, 90 min; activity, % at 10 µM; 0.79% of 370,000 active; AID 1259318;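 active = activity above about 14%, limit read from the data; passing the limit was not always enough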;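 also: 0% = DMSO wells with 35 nM protein and 100% = DMSO wells with 750 nM protein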
# ERp5 block = ERp5 (human) disulfide isomerase inhibition. inhibition, % at 9.99 µM. ERp5 insulin aggregation, absorbance 650 nm, 90 min. 0.05% of 350,000 active;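 active = mean replicate inhibition above about 25%, with every replicate also reaching it, limit read from the data, passing the limit was not always enough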
# GSIS activator = primary screen for activators of insulin secretion dependent on glucose, INS-1E cells, GLuc reporter luminescence; AID 743287; 0.61% of 370,000 active; activation, % at 16.6 µM; INS-1E GLuc reporter insulin secretion, 2-3 h;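 active = lowest replicate activation of at least 40%, so every replicate reaches that level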;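 also: 0% = median of neutral control wells and 100% = median of IBMX positive control wells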
# PDI turbidity = blocks human protein disulfide isomerase activity; P07237; PDI insulin aggregation turbidity, A650, 90 min; inhibition, % at 10 µM; 0.052% of 350,000 active;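 active = mean inhibition across replicates of 30% or more, whatever share of single replicates reach that level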
# * hit, by the source's call; . = no result given. This is a sample that favours compounds with a hit; in the whole collection about 2.1% have one here.
SMILES,Yeast UUG start,SMARCA2 activ,NR1D1 modulator,ERp5 block,GSIS activator,PDI turbidity
NNC(=O)c1cccnc1Oc1ccccc1,-4,-1,-4,1,44*,0
COc1ccccc1NC(=O)N1C[C@H](O)COC[C@@H]2O[C@H](CC(=O)NCc3ccccc3)CC[C@H]21,.,.,.,-1,-1,.
COCCn1c(-c2ccc3ccccc3c2)nc2c1c(=O)[nH]c(=O)n2CC(C)C,-18,-2,0,1,48*,17
CC(C)(C)C(=O)OCc1nc(-c2ccc(F)cc2)cs1,-17,7.9*,4,4,7,1
C[C@@H]1CN([C@@H](C)CO)C(=O)c2cccc(NC(=O)Nc3ccc4c(c3)OCO4)c2O[C@@H]1CN(C)S(=O)(=O)c1ccc(Cl)cc1,.,.,.,2,14,.
CO[C@H]1CN(C)C(=O)c2cc(NS(=O)(=O)c3cccc(C)c3)ccc2OC[C@@H](C)NC[C@@H]1C,-6,.,.,-2,11,.
CC(C)=C[C@H]1C[C@H](C)[C@H]2CC[C@H](C)c3c(O[C@@H]4OC[C@@H](O)[C@H](O)C4O)c(O)c(C)c1c32 (stereo partly drawn),-1,-1,-1,-2,122*,-6
O=C(NCC[C@H]1CC[C@H](NC(=O)C2CC2)[C@@H](CO)O1)c1cnccn1,3,.,.,-1,12,.
Nc1nc2ccccc2[nH]1,-22,2,2,-2,27,-2
Nc1ccccc1Sc1nc2ccccc2[nH]1,.,9.2*,2,9,5,7
C[C@H]1CCCCO[C@H](CN(C)Cc2ccc(C(F)(F)F)cc2)[C@@H](C)CN([C@@H](C)CO)C(=O)c2cc(NC(=O)CCCN(C)C)ccc2O1,3,.,.,2,27,.
CCCNc1cc(C)oc(=O)c1C(=O)CCC,-13,0,0,.,88*,8
COc1ccc(S(=O)(=O)Nc2ccc3c(c2)CC(=O)N([C@H](C)CO)C[C@H](C)[C@@H](CN(C)S(=O)(=O)c2cn(C)cn2)O3)cc1,3,.,.,-8,7,.
C=CCNC(=O)c1cnc2n(c1=O)CCS2,1,7.9*,6,5,2,11
Cc1ccccc1NC(=O)c1ccc(OCc2c(C)noc2C)cc1,1,-1,10,0,28,5
Cc1cccc(NC(=O)c2ccc(OCc3c(C)noc3C)cc2)c1C,3,-6,-2,-7,137*,6
Cn1c(SCC(=O)N2CCCC2)nc2ccccc21,.,-1,-4,-10,2,1
Cn1c(SCc2nnc3n2CCCCC3)nc2ccccc21,-10,-4,1,.,66*,-4
C[C@@H]1CCCCO[C@H](CN(C)Cc2ccncc2)[C@H](C)CN([C@@H](C)CO)C(=O)c2cc(NC(=O)Nc3ccc4c(c3)OCO4)ccc2O1,-20,.,.,-1,-17,.
Cc1n[nH]c(=O)c2c(NC(=O)CSc3nnnn3-c3ccccc3)oc(C)c12,-28,-1,12,-5,5,2

# Compound profiles (already shown). Order of screens: Yeast UUG start | SMARCA2 activ | NR1D1 modulator | ERp5 block | GSIS activator | PDI turbidity
# `Cn1c(SCC(=O)N2CCCC2)nc2ccccc21` as listed: . | -1 | -4 | -10 | 2 | 1
# `O=C(NCC[C@H]1CC[C@H](NC(=O)C2CC2)[C@@H](CO)O1)c1cnccn1` as listed: 3 | . | . | -1 | 12 | .

# New compounds follow:
SMILES,Yeast UUG start,SMARCA2 activ,NR1D1 modulator,ERp5 block,GSIS activator,PDI turbidity
Cc1n[nH]c(=O)c2c(NC(=O)CSc3nnnn3-c3ccc(O)cc3)oc(C)c12,21,-5,-10,-10,21,43*
COc1cc(CN2CCc3ccccc3C2)ccc1O,.,-3,-2,-3,77*,-6
C[C@@H]1CN([C@@H](C)CO)C(=O)Cc2cc(NC(=O)Nc3ccc(F)cc3)ccc2O[C@@H]1CN(C)C(=O)Nc1ccc(F)cc1,-3,.,.,-5,-7,.
COc1ccc2c3c([nH]c2c1)[C@@H](CO)N(C(=O)c1ccc(F)cc1)CC31CCN(C(=O)Nc2cccc(F)c2)CC1,.,.,.,63*,-9,.
COc1ccc2c3c([nH]c2c1)[C@H](CO)N(C(=O)c1ccc(F)cc1)CC31CCN(C(=O)Nc2cccc(F)c2)CC1,.,.,.,66*,4,.
COc1ccc2c3c([nH]c2c1)[C@H](CO)N(C(=O)c1ccc(F)cc1)CC31CN(C(=O)Nc2cccc(F)c2)C1,.,.,.,-1,8,.
COc1ccc(NC(=O)N(C)C[C@@H]2Oc3ccc(NC(=O)Nc4cccc5ccccc45)cc3CC(=O)N([C@H](C)CO)C[C@H]2C)cc1,10,.,.,-10,-4,.
CC1CCc2nc(N)c(C#N)c(-c3cccnc3)c2C1 (stereo not drawn),-7,-7,5,2,16,-15
CC1CCc2nc(N)c(C#N)c(-c3ccncc3)c2C1 (stereo not drawn),-16,-1,4,.,78*,2
CCOC(=O)C(C)Oc1cccc2c(=O)n(CC(=O)NCc3ccc(F)cc3)ccc12 (stereo not drawn),-10,-3,6,0,42*,-7
CCOC(=O)C(C)Oc1cccc2c(=O)n(CC(=O)NCc3ccccc3)ccc12 (stereo not drawn),10,1,2,-10,5,-5
COc1ccc2c3c(n(C)c2c1)[C@@H](CO)N(CC1CC1)CC31CCN(C(=O)c2ccc(F)cc2)CC1,.,.,.,-4,-8,.
COc1ccc(F)cc1C(=O)C1CCCN(C(=O)c2ccc(C(C)=O)s2)C1 (stereo not drawn),-31,-2,2,3,76*,-13
CC(=O)c1ccc(C(=O)N2CCCC(C(=O)c3cc(F)ccc3F)C2)s1 (stereo not drawn),-5,-3,-4,2,-11,-1
Cc1ccc(CNC(=O)COC(=O)c2c(C)noc2C)cc1,-16,-1,-4,.,.,14
Cc1noc(C)c1C(=O)OCC(=O)NCCc1ccc(Cl)cc1,-10,-2,7,.,.,35*
CC(C)=CCC[C@H](C)C[C@@H]1Cc2[nH]c(=S)[nH]c(=O)c2[C@@H](c2ccc(F)cc2)O1,.,3,-3,5,255*,.
COC(=O)C[C@@H]1C=C[C@@H](NS(=O)(=O)c2ccc(OC)cc2)[C@H](CO)O1,-13,.,.,4,9,.
CCOC(=O)Cc1csc(NC(=O)c2ccc(OC)c(OC)c2)n1,2,-5,-4,.,55*,-6
O=C(Cc1csc(NC(=O)c2ccccc2)n1)NO,-14,-1,-1,-1,57*,3
CCOC(=O)Cc1csc(NC(=O)c2cccc([N+](=O)[O-])c2)n1,-4,0,-2,-1,179*,1
COc1ccc(C(=O)Nc2nc(CC(=O)NCCc3ccccc3)cs2)cc1,.,0,-2,-3,-34,-4
CC(C)OC(=O)CCC/C=C\C[C@@H]1[C@@H](/C=C/[C@@H](O)COc2cccc(C(F)(F)F)c2)[C@H](O)C[C@@H]1O,.,.,-2,.,.,.
C=CCOC(=O)C(=O)/C=C/c1ccc(OC)cc1,.,.,.,1,.,.
C[C@H](CO)N1C[C@H](C)[C@@H](CN(C)Cc2ccc(C(=O)Nc3ccccc3N)cc2)Oc2ccc(NC(=O)Cc3cn(C)c4ccccc34)cc2C1=O,-1,.,.,-5,-12,.
CC(C)(C)c1nc2ccccc2c2nnc(SCC(=O)Nc3nccs3)n12,-14,-3,4,.,77*,13

# ERp5 block, hit marks shown above
SMILES,Yeast UUG start,SMARCA2 activ,NR1D1 modulator,ERp5 block,GSIS activator,PDI turbidity
COc1ccc2c3c([nH]c2c1)[C@@H](CO)N(C(=O)c1ccc(F)cc1)CC31CCN(C(=O)Nc2cccc(F)c2)CC1,.,.,.,63*,-9,.
COc1ccc2c3c([nH]c2c1)[C@H](CO)N(C(=O)c1ccc(F)cc1)CC31CCN(C(=O)Nc2cccc(F)c2)CC1,.,.,.,66*,4,.

# Screens deposited in PubChem BioAssay by several laboratories.
